Data as given in patent EP0771564A1, “INTERLEUKIN-5 PRODUCTION INHIBITOR” (TAISHO PHARMACEUTICAL CO. LTD, priority 1994, dated 1996).

Test system: ICR male mice
Experiment: Oral administration safety test in mice (mortality)
Type: in vivo
Settings: orally administered to ICR male mice, dose level of 100 mg/kg
Excerpt: The compounds of Examples 1 and 2 were orally administered to ICR male mice grouped in fives.

Q: Which death does the source give for “3-O-(4-Biphenyl)acetyl-5-O-desosaminyl-6-O-methylerythronolide A 11,12-Cyclic Carbonate [Compound of Example 1]” here?
A: No death was observed
